## Ab-14 light chain CDR variants: yeast mating affinities

Values reported by Li et al. 2023, doi:10.1038/s41467-023-39022-2 (FLAb copy).

All variants were tested on one target, the spike HR2 peptide PDVDLGDISGINAS (SARS-CoV-2).

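The starting antibody came from a phage panning campaign against this peptide. This is the validation round: designs drawn from the data on random variants, tested in the same kind of assay. Several design methods are mixed in this list. AlphaSeq pools MATa yeast showing the antibodies with MATalpha yeast showing the peptide. Binding brings cells together so that they mate, and sequencing counts the barcode pairs among the diploids. Each replicate has its own calibration line, from reference interactions of the BCL2 family. There are six technical replicates.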

Parent: Ab-14, a human scFv built as VH, a 15-residue (Gly4Ser)3 linker, VL. Only the CDRs of the light chain vary.
VH: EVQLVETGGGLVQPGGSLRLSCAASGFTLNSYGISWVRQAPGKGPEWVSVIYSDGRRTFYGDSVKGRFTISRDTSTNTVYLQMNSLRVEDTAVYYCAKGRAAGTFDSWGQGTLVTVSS
VL: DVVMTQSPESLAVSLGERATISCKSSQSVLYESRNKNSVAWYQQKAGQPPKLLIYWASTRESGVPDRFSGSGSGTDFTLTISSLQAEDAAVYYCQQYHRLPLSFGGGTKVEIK

Each variant is given by its three light chain CDRs, as the data file delimits them; those of the parent are KSSQSVLYESRNKNSVA, WASTRES, QQYHRLPLS.
This list holds designs with more than six substitutions.
Kd is apparent (estimated from mating counts) and averaged on the log scale over replicates with a signal. Smaller is tighter.
A pair that was not seen in any replicate is written "nd"; this usually means weak binding, but a binder can also be missed.
Order: sorted from the lowest average up, undetected variants last.

CDR-L1	CDR-L2	CDR-L3	Kd	detected
NIVGRVEDKQTETANIA	DAHCRAG	QQYSRLPLS	320 pM	6/6
KLGQAVAMTSRNKNNVA	DLNERER	QQYHRLPLS	410 pM	6/6
TISDLIMVASRNRNSVA	DESARPD	QQYHRLPLS	660 pM	6/6
KLRQQTLYETRNKNSVA	HASTREE	QQYHRLPLS	680 pM	6/6
NMQMQDDRMLNAKQNVA	GVDMREE	QQYFRLPFL	830 pM	6/6
QLEVFPLQAGSTTQAIA	DASHRTP	QQYSRLPLV	1.0 nM	6/6
KLGDMVHTESRNKNSIA	DMRTRES	QQYHRLPLS	1.0 nM	6/6
MFSQLFMMGSRNYNSVA	QASTREE	QQYHRLPLI	1.1 nM	5/6
KIGATLNTLYEKANNVA	DLVEREN	QQYFRLPLS	1.2 nM	6/6
KLQPSWLYEERNDNSVA	QASQRES	QDYHRLPLS	1.2 nM	6/6
SLMQYGGYESNAHNSIA	DLRTRES	QQYHRLPLS	1.3 nM	6/6
IISDLTMYGSRNKNSVA	DLSTRGS	QQYHRLPLS	1.3 nM	6/6
HITMGMYVMGRHNASIA	QAEERAK	QQYDRLPLI	1.4 nM	6/6
KLYDMSALSVTNIRNVA	DNSTREA	QQYHRLPLS	1.4 nM	6/6
KLSTSWGYEKRNKNSVA	QASQRES	QQYHRLPLS	1.5 nM	6/6
RLQIHDNGYIGMRNNVA	DGGMVRM	QQYARLPLM	1.6 nM	6/6
KLSQSKGGESRNPNSVA	HASTRER	QQYHRLPLS	1.6 nM	6/6
MVYGAAMMGGSARNSIA	NAQMRPD	QQYHRLPLI	2.1 nM	3/6
KLSSSWLMEQRNVNSVA	QASQRLR	QQYHRLPLS	2.2 nM	6/6
TVSQVHEMLSRNKNSVA	DANCRES	QQYDRLPLS	2.8 nM	6/6
KQDQSCPGEQRNKNSVA	SASTRCS	QQYHRLPLS	2.9 nM	6/6
KVVQSHDYESRNKNSVA	HASTRCS	QDYHRLPLS	3.9 nM	6/6
QIQSESEVDYKDKNSMA	DSECKAA	QQYFRLPLM	3.9 nM	6/6
KVAQGIFDGKRHSHSIA	EVSELCD	QQYSRLPLE	4.4 nM	6/6
SMQVYTENFAEIGQNIA	DVSATTA	QQYHRLPLA	5.9 nM	6/6
KLSWSVGYGQRNKNSVA	EASTRMS	QQYHRLPLY	6.1 nM	6/6
SIEWEEWNGQSVKHNIA	ADTQVLE	QQYFRLPFT	7.8 nM	6/6
MLLQSTMYGERQRNSVA	HASTRED	QQYHRLPLI	9.5 nM	3/6
ALGTSTLEESRNKNSVA	EMSLREE	QSYNRLPLS	12 nM	6/6
HITYGMQVMGRHSKSIA	QAETREK	QQYDRLPLA	13 nM	6/6
KLLQSQEYESRNKNSVA	HASTRED	QQYHCLPLS	15 nM	4/6
MVNGHTVHQANRDNNIA	EAQMVAA	QDYHRLPLI	15 nM	6/6
KLQTLTYFENIGESSVA	DVNTHVD	QQYFRLPLS	16 nM	6/6
MISQMFEGLSTSKNPVA	QVSTREE	QQYHRLPLS	18 nM	6/6
KFMYSVLYEERNQNSVA	GASQRES	QQYHRLPLS	19 nM	6/6
KLWAYLQGLERNMQNIA	DGIYRVT	QQYDRLPLS	21 nM	6/6
KISMLLNMTFNQSNNVA	EMATREK	QQYNRLPLS	23 nM	6/6
KLRQSIHIESFNKNNVA	EMTTRES	QSYDRLPLS	24 nM	6/6
KVSMLINMTFEESNNVA	EMVTREK	QQYNRLPLS	25 nM	2/6
KLSQFYRMESRKKNSVA	DNSTRES	QQYDRLPLS	27 nM	5/6
KLSQSVEQLSRNKNSVA	QASWREV	QAYHRLPLS	27 nM	5/6
MLLQQTMYGERNRNSVA	HASTRED	QQYHRLPLI	49 nM	6/6
HMSALTLMGSRNRNSVA	QMTTREN	QQYDRLPLS	53 nM	2/6
MISQLGNMGQFAINSVA	QASLRND	QQYDRLPLT	54 nM	6/6
KLSNWYFDSYGNKQSVA	ENEATSN	QQYSLLPLS	67 nM	6/6
SLTNETDGNYGRNNSVA	DAEELMT	QDYFRLPIT	86 nM	4/6
MISQLYNMGQFAINSVA	QASQRCN	QQYDRLPLM	100 nM	4/6
KIQHQHVGNWKTMDNIA	QGDQRCQ	QSYDRLPLS	170 nM	6/6
HISQTVGMTSHNKNSVA	ENSTRED	QQYDRLPLS	260 nM	4/6
HISQSVGMTSFQKNSVA	ENSTRED	QQYDRLPLS	390 nM	6/6
KVSEFMRGLMKMQDSIA	DNETRPD	QQYDRLPLS	410 nM	6/6
LMNERMEMGENQQHSIA	NAAHLVH	QDYHRLPLG	1.7 µM	3/6
MIYGQQRELGLMANSIA	DNVTRYD	QQYERLPLS	11 µM	3/6
KVEIFMWTMDNANQHIA	NGAEERP	QQYQRLPLS	nd	0/6
MLSEVLHMLGVAKNSIA	DLVLRAN	QQYHRLPLA	nd	0/6
MLSEVLHMLGVMKNSIA	DLVLRAN	QQYHRLPLA	nd	0/6

The last 9 entries again:

CDR-L1,CDR-L2,CDR-L3,Kd,detected
KIQHQHVGNWKTMDNIA,QGDQRCQ,QSYDRLPLS,170 nM,6/6
HISQTVGMTSHNKNSVA,ENSTRED,QQYDRLPLS,260 nM,4/6
HISQSVGMTSFQKNSVA,ENSTRED,QQYDRLPLS,390 nM,6/6
KVSEFMRGLMKMQDSIA,DNETRPD,QQYDRLPLS,410 nM,6/6
LMNERMEMGENQQHSIA,NAAHLVH,QDYHRLPLG,1.7 µM,3/6
MIYGQQRELGLMANSIA,DNVTRYD,QQYERLPLS,11 µM,3/6
KVEIFMWTMDNANQHIA,NGAEERP,QQYQRLPLS,nd,0/6
MLSEVLHMLGVAKNSIA,DLVLRAN,QQYHRLPLA,nd,0/6
MLSEVLHMLGVMKNSIA,DLVLRAN,QQYHRLPLA,nd,0/6

Background: pairings of all light chain designs with three empty control strains gave a value in 4% of cases (median 430 nM, 5th percentile 38 nM). Values in that range, when seen in few replicates, are hard to tell from nonspecific mating.
Of ten entries with the parent sequence, four were seen in most replicates (averages 2.2 nM to 240 nM), three in one and three in none, so single entries are noisy.
Values of this round are not directly comparable with the first-round values of the same sequences.
The authors averaged sequences with at least three values out of six and counted those with two or fewer as poor binders.